The subject of one test is Mino cells. The experiment in a line: Mino cell proliferation assay (CTG). The following applies: read-out: Mino IC50, 96 h incubation, cell growth inhibition. The method, then: (§1) Mino or TMD8 cells were cultured in RPMI 1640 medium containing 10% fetal bovine serum (Gibco). After reaching the logarithmic growth phase, cells were collected, counted and seeded into 96-well plates at 2000 cells/well. Following overnight incubation, compounds were added to reach final concentrations of 1 µM, 200 nM, 40 nM, 8 nM, 1.6 nM, 0.32 nM, 0.064 nM, 0.0128 nM, 0.00256 nM and 0.00051 nM, with a final DMSO concentration of 0.2%. 0.2% DMSO and blank RPMI 1640 medium (without cells and compounds) were set as vehicle control and negative control, respectively. Two replicates were set for each concentration. After the test compound was mixed, the 96-well plate was placed in a 37°C, 5% CO2 incubator and cultured (Mino cells were incubated for 96 h, REC-1 and TMD8 cells were incubated for 72 h). After incubation, the plates were placed at room temperature, 50 µL of CTG reagent was added, and the plates were shaken for 2 min and incubated at room temperature for 10 min. The luminescence signal (RLU) in each well was measured using a microplate reader to calculate the cell growth inhibition rate, followed by fitting a dose-response curve to determine the half-inhibitory concentration (IC50). Table 1: IC50 of the exemplary compounds against TMD8/Mino cells

The chains behind the UniProt entries cited, without tags or fusion partners.
UniProt P35991, whole entry: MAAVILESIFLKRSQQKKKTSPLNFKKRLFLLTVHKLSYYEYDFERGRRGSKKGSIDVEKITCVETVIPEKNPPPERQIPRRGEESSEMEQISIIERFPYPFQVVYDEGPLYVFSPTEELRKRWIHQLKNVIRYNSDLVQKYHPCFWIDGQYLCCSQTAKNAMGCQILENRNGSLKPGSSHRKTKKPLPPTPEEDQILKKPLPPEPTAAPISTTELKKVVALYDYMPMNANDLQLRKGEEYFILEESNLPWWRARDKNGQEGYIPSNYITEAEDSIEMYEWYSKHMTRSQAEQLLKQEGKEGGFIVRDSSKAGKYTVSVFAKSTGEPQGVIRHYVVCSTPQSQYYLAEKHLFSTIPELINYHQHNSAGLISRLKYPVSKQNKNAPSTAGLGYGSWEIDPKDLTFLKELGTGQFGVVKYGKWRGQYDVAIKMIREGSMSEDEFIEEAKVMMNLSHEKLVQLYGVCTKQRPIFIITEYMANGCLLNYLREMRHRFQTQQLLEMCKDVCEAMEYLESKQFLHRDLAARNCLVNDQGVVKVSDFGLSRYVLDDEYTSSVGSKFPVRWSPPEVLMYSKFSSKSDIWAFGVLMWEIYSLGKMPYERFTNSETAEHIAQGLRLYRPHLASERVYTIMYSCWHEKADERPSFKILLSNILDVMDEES

For the next test, the system named is TMD8 cells. The experiment in a line: TMD8 cell proliferation assay (CTG). The note with it: read-out: TMD8 IC50, 72 h incubation, cell growth inhibition. The method, then:
as §1

The target in another test is BTK (Mus musculus, UniProt P35991). Description: Single oral administration test in mice, BTK protein level by Western blotting. The following applies: single oral dose of 10 mpk, relative to vehicle group; for 6h whole blood BTK Deg%: whole blood at 6 h; for 24h whole blood BTK Deg%: whole blood at 24 h; for 24h spleen BTK Deg%: spleen at 24 h. The method, then: Mice were administered a single oral dose of 10 mpk. On the day of administration, the compound was dissolved in a mixture (10% DMSO, 40% PEG 400, 5% Tween 80 and 45% saline) and vortexed until a clear, transparent solution was obtained. Following oral gavage, whole blood samples were collected at 6 h and 24 h, and spleen samples were collected at 24 h. BTK protein levels were analyzed by Western blotting.
Whole blood samples were pretreated using a whole blood protein extraction kit. According to the manufacturer's instructions, 100× PMSF was added to the protein extract and vortexed thoroughly. An equal volume of the protein extract was combined with the whole blood sample, mixed well, and shaken on ice for 20 min. A tube was inserted into the centrifuge column, and the extract solution was pipetted into the column. Centrifugation was performed at 4 °C and 10,000 × g for 3-5 min. The eluate from the collection tube was collected as total whole blood protein.
Mouse spleen samples were minced, and 150 µL of RIPA lysis buffer containing PMSF was added. The tissues were homogenized on ice using a tissue homogenizer and incubated on ice for an additional 10-20 min for lysis. The samples were centrifuged at 4 °C and 13,000 × g for 30 min. The supernatant was transferred to a fresh centrifuge tube to obtain total spleen protein.
Protein concentration was determined by the BCA assay. After heat denaturation, proteins were separated by sodium dodecyl sulfate-polyacrylamide gel electrophoresis and transferred onto PVDF membranes. The membranes were incubated with blocking buffer for 1 h at room temperature, followed by overnight incubation with primary antibodies against BTK and GAPDH (both diluted 1:1000) at 4°C. After three washes with TBST, HRP-conjugated rabbit anti-goat secondary antibody (diluted 1:10,000) was applied and incubated for 1 h at room temperature. The membranes were then washed three times with TBST. ECL chemiluminescent solution was added, and images were acquired using a gel imaging system. The grayscale values of target protein bands were quantified with Image-Pro Plus 6.0 software. Relative BTK protein levels were compared with those of the vehicle group, and the degradation rate (Deg%) was calculated. Table 3 BTK degradation rate in whole blood/spleen of mice after single administration of exemplary compounds of the present application
(A western blot detects proteins with antibodies after separation by electrophoresis.)

Another test concerns MCL patients. The following applies: cited from earlier work.
A further test relates to Baf3-BTK-T474I cells. Description: BTK mutant cell inhibitory activity assay (Cell Titer-Glo). The following applies: read-out: Baf3-BTK-T474I IC50, 72 h, cell growth inhibition. The method, then:
(§2) REC-1-BTK-L528W or Baf3-BTK-T474I cells in the logarithmic growth phase were seeded into 96-well plates at a density of 3 × 10^3 cells per well. Compound solutions at various concentrations (starting from 2 µM with five-fold serial dilution) were added. The plates were gently mixed and incubated in a cell culture incubator for 72 h. Subsequently, 50 µL Cell Titer-Glo reagent was added. The plates were shaken for 2 min and incubated at room temperature for 10 min. The luminescence signal (RLU) in each well was measured using a microplate reader to calculate the cell growth inhibition rate, followed by fitting a dose-response curve to determine the half-inhibitory concentration (IC50). Table 2: IC50 of the exemplary compounds against BTK-L528W/T474I mutant cells
Background: Cellular ATP, detected with luciferase, serves as a proxy for viable cell number.

A further test has as its system REC-1-BTK-L528W cells. The description is as above. The following applies: read-out: REC-1-BTK-L528W IC50, 72 h, cell growth inhibition. The method, then: as §2

As to `Cc1c(NC(=O)c2ccc(C(C)(C)O)cc2F)cc(F)cc1-n1cc(Nc2ccc(N3CCN(CC4CN(c5cc(F)c(C6CCC(=O)NC6=O)c(F)c5)C4)C[C@@H]3C)cn2)c(C(N)=O)n1` (stereo partly drawn), the concentration for half-maximal inhibition (IC50) (in general, the concentration at which inhibition is half-maximal) with Mino cells stood at 12.7 nM.

For `CN(c1cnc(C(N)=O)c(Nc2ccc(C3CCN(CC4CN(c5cc(F)c(C6CCC(=O)NC6=O)c(F)c5)C4)CC3)cc2)n1)[C@@H]1CCCN(S(C)(=O)=O)C1` (stereo partly drawn), the half-inhibitory concentration (IC50) in the test with TMD8 cells is 0.3 nM.

`Cc1c(NC(=O)c2ccc(C(C)(C)O)cc2F)cc(F)cc1-c1cc(Nc2ccc(N3CCN(CC4CN(c5cc(F)c(C6CCC(=O)NC6=O)c(F)c5)C4)C[C@@H]3C)cn2)c(=O)n(C)c1` (stereo partly drawn): the IC50 in the test on TMD8 cells stood at 3.9 nM.

`CN(c1cnc(C(N)=O)c(Nc2ccc(C3CCN(CC4CN(c5cc(F)c(C6CCC(=O)NC6=O)c(F)c5)C4)CC3)cc2)n1)[C@@H]1CCCN(C(=O)C2CC2)C1` (stereo partly drawn): in the test on TMD8 cells, the IC50 worked out at 1.3 nM. Besides, in the test with Mino cells, the concentration for half-maximal inhibition (IC50) was 1.95 nM. Moreover, at BTK, the “6h whole blood BTK Deg%” value was “A (>80%)” and the “24h whole blood BTK Deg%” value is “A (>80%)”.

Consider `CN1CCN([C@@H]2CCCN(c3cnc(C(N)=O)c(Nc4ccc(C5CCN(C(=O)CN6Cc7cc8c(cc7C6)C(=O)N(C6CCC(=O)NC6=O)C8=O)CC5)cc4)n3)C2)C1=O` (stereo partly drawn), for which the values for the half-maximal inhibitory concentration (IC50) in the test with TMD8 cells and in the test on Mino cells were 8.9 nM and 9.95 nM, respectively.

For the molecule `CN1CCN([C@@H]2CCCN(c3cnc(C(N)=O)c(Nc4ccc(C5CCN(C(=O)CN6CCC(n7ccc8c(N9CCC(=O)NC9=O)cccc87)CC6)CC5)cc4)n3)C2)C1=O`, the concentration for half-maximal inhibition (IC50) stood at 0.8 nM with TMD8 cells and 3.07 nM with Mino cells.

`COc1ccc(F)cc1C(=O)NCc1ccc(-c2nn([C@@H](C)C(F)(F)F)c(N)c2C(N)=O)cc1`: in the test with MCL patients, the “complete response (CR) rate” value is on record as 25%, the “objective response rate (ORR)” value is reported as 51% and the “partial response (PR) rate” value is 26%.

`NC(=O)c1ncc(N2CCC[C@@H](N3CCOC3=O)C2)nc1Nc1ccc(C2CCN(CC3CN(c4cc(F)c(C5CCC(=O)NC5=O)c(F)c4)C3)CC2)cc1` (single isomer, unassigned) [Example 23]: the half-maximal inhibitory concentration (IC50) with TMD8 cells was found to be 3.4 nM.

Consider `NC(=O)c1ncc(N2CCC[C@@H](N3CCN(C4CC4)C3=O)C2)nc1Nc1ccc(C2CCN(CC3CN(c4cc(F)c([C@@H]5CCC(=O)NC5=O)c(F)c4)C3)CC2)cc1` (single isomer, unassigned), for which the IC50 in the test with TMD8 cells was found to be 1.5 nM.

Turning to `CN1CCN([C@@H]2CCCN(c3cnc(C(N)=O)c(Nc4ccc(C5CCN(CC6CN(c7cc(F)c(C8CCC(=O)NC8=O)c(F)c7)C6)CC5)cc4)n3)C2)C1=O` (single isomer, unassigned) [Example 20], the 50% inhibitory concentration (IC50) in the test with TMD8 cells stood at 0.4 nM; with Baf3-BTK-T474I cells, 1.75 nM; in the test on REC-1-BTK-L528W cells, 0.35 nM.

With `NC(=O)c1ncc(N[C@@H]2CCCN(C(=O)C3CC3)C2)nc1Nc1ccc(C2CCN(CC3CN(c4cc(F)c(C5CCC(=O)NC5=O)c(F)c4)C3)CC2)cc1` (stereo partly drawn), the IC50 was 1.3 nM with TMD8 cells and 1.56 nM in the test with Mino cells.

Regarding `CN1CCN([C@@H]2CCCN(c3cnc(C(N)=O)c(Nc4ccc(N5CCC(CN6Cc7cc8c(cc7C6)C(=O)N(C6CCC(=O)NC6=O)C8=O)CC5)cc4)n3)C2)C1=O` (stereo partly drawn), the IC50 in the test on TMD8 cells came to 8.4 nM.

For `CN(c1cnc(C(N)=O)c(Nc2ccc(N3CCC(N4CCC(n5ncc6c(N7CCC(=O)NC7=O)cccc65)CC4)CC3)cc2)n1)[C@@H]1CCCN(C(=O)C2CC2)C1`, in the test with TMD8 cells, the half-maximal inhibitory concentration (IC50) came to 0.3 nM. Besides, in the test with Baf3-BTK-T474I cells, the IC50 turned out to be 3.13 nM. Besides, at BTK, the “24h spleen BTK Deg%” value was “C (<60%)”, the “6h whole blood BTK Deg%” value is recorded as “C (<60%)” and the “24h whole blood BTK Deg%” value is listed as “B (60-80%)”.

`CN1CCN([C@@H]2CCCN(c3cnc(C(N)=O)c(Nc4ccc(C5CCN(CC6CCN(c7ccc(C(=O)N[C@H]8CCC(=O)NC8=O)nc7)CC6)CC5)cc4)n3)C2)C1=S`: the half-inhibitory concentration (IC50) with TMD8 cells amounted to 9.7 nM; with Mino cells, 2.58 nM.

Regarding `CN1CCN([C@@H]2CCCN(c3cnc(C(N)=O)c(Nc4ccc(C5CCN(CC6CN(c7cc(F)c(C8CCC(=O)NC8=O)c(F)c7)C6)CC5)cc4)n3)C2)C1=O` (stereo partly drawn), in the test on TMD8 cells, the half-maximal inhibitory concentration (IC50) turned out to be 1.4 nM. The IC50 with Mino cells is 7.73 nM. For the same molecule, on BTK, the “6h whole blood BTK Deg%” value is reported as “A (>80%)” and the “24h whole blood BTK Deg%” value is on record as “A (>80%)”.

For the molecule `NC(=O)c1ncc(N[C@@H]2CCCN(C(=O)C3CC3)C2)nc1Nc1ccc(N2CCC(N3CCC(n4ncc5c(N6CCC(=O)NC6=O)cccc54)CC3)CC2)cc1`, the 50% inhibitory concentration (IC50) with TMD8 cells is 0.4 nM. Also, in the test with REC-1-BTK-L528W cells, the IC50 was determined as 29 nM. For the same molecule, on BTK, the “6h whole blood BTK Deg%” value is given as “B (60-80%)” and the “24h whole blood BTK Deg%” value is on record as “A (>80%)”.

Consider `CN1CCN([C@@H]2CCCN(c3cnc(C(N)=O)c(Nc4ccc(C5CCN(CC6CN(c7cc(F)c(C8CCC(=O)NC8=O)c(F)c7)C6)CC5)cc4)n3)C2)C1=O` (single isomer, unassigned) [Example 21], for which the half-maximal inhibitory concentration (IC50) in the test with TMD8 cells was found to be 4.7 nM.

For the molecule `NC(=O)c1ncc(N2CCC[C@@H](N3CCOC3=O)C2)nc1Nc1ccc(C2CCN(CC3CN(c4cc(F)c(C5CCC(=O)NC5=O)c(F)c4)C3)CC2)cc1` (single isomer, unassigned) [Example 22], the half-inhibitory concentration (IC50) in the test with TMD8 cells turned out to be 0.3 nM. In addition, in the test on Baf3-BTK-T474I cells, the 50% inhibitory concentration (IC50) was determined as 1.15 nM. Besides, the half-maximal inhibitory concentration (IC50) in the test on REC-1-BTK-L528W cells was found to be 1 nM. On BTK, the “24h spleen BTK Deg%” value is given as “B (60-80%)”, the “6h whole blood BTK Deg%” value is given as “B (60-80%)” and the “24h whole blood BTK Deg%” value is “A (>80%)”.

`CN1CCN([C@@H]2CCCN(c3cnc(C(N)=O)c(Nc4ccc(C5CCN(C6CN(c7cc(F)c(C8CCC(=O)NC8=O)c(F)c7)C6)CC5)cc4)n3)C2)C1=O` (stereo partly drawn): the concentration for half-maximal inhibition (IC50) with TMD8 cells was found to be 3.1 nM; in the test with Mino cells, 0.57 nM.

For the molecule `CN1CCN([C@@H]2CCCN(c3cnc(C(N)=O)c(Nc4ccc(C5CCN(CC6CCN(c7ccc(C(=O)N[C@H]8CCC(=O)NC8=O)nc7)CC6)CC5)cc4)n3)C2)C1=O`, the IC50 was 2.2 nM in the test with TMD8 cells, 12.6 nM in the test with Baf3-BTK-T474I cells, 29 nM in the test on REC-1-BTK-L528W cells and 11.4 nM in the test on Mino cells. For the same molecule, the “24h spleen BTK Deg%” value at BTK is “B (60-80%)”. In addition, the “6h whole blood BTK Deg%” value at BTK is “B (60-80%)”. Further, the “24h whole blood BTK Deg%” value on BTK is given as “B (60-80%)”.

Take `COC(=O)N1CCC[C@@H](Nc2cnc(C(N)=O)c(Nc3ccc(N4CCC(N5CCC(n6ncc7c(N8CCC(=O)NC8=O)cccc76)CC5)CC4)cc3)n2)C1`: the IC50 with TMD8 cells was 0.4 nM.

On to `COC(=O)N1CCC[C@@H](N(C)c2cnc(C(N)=O)c(Nc3ccc(N4CCC(N5CCC(n6ncc7c(N8CCC(=O)NC8=O)cccc76)CC5)CC4)cc3)n2)C1`, for which the IC50 with TMD8 cells came out at 0.3 nM. The IC50 with Baf3-BTK-T474I cells stood at 4.17 nM. Moreover, in the test on REC-1-BTK-L528W cells, the IC50 was found to be 5.38 nM. For the same molecule, on BTK, the “24h spleen BTK Deg%” value is on record as “B (60-80%)”, the “6h whole blood BTK Deg%” value is reported as “C (<60%)” and the “24h whole blood BTK Deg%” value is listed as “C (<60%)”.
